Results: PMC9329268 (Angewandte Chemie (International ed. in English), 2022)

Chains of the proteins cited; added tags and fusions are not shown. Lines headed by an entry give the natural chain unless they say otherwise; changes in a name come on top.
UniProt P0AC78: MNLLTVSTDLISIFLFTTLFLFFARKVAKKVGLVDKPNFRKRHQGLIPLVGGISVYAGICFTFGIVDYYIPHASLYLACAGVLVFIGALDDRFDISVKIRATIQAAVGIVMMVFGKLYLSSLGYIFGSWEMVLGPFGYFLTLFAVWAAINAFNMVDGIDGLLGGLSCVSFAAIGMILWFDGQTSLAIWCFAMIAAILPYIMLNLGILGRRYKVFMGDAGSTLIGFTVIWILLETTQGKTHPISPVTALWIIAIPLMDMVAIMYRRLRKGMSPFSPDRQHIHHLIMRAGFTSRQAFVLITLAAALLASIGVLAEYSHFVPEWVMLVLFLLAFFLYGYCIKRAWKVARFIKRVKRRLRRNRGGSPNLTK

Biological target: WecA (Escherichia coli, UniProt P0AC78)
Details: read-out: IC50 WecA

| Compound | IC50 [nM] |
| --- | --- |
| CC(=O)N[C@H]1[C@@H](O[C@@H]2O[C@H](C[C@@H](O)[C@H]3O[C@@H](n4ccc(=O)[nH]c4=O)[C@H](O)[C@@H]3O)[C@H](O)[C@H](O)[C@H]2NC(=O)/C=C/CCCCCCCCCC(C)C)O[C@H](CO)[C@@H](O)[C@@H]1O [TN-V (natural), tunicamycin V, reference compound] | 150 |
| CC(=O)N[C@H]1[C@@H](O[C@@H]2O[C@H](C[C@@H](O)[C@H]3O[C@@H](n4ccc(=O)[nH]c4=O)[C@H](O)[C@@H]3O)[C@H](O)[C@H](O)[C@H]2NC(=O)/C=C/CCCCCCCCCC(C)C)O[C@H](CO)[C@@H](O)[C@@H]1O [TN-V (1, synthetic), tunicamycin V] | 150 |
